T1: 26-mer peptide
T1 chain: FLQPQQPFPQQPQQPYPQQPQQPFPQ

T2: 33-mer peptide
T2 chain: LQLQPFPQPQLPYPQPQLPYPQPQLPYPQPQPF


Key:
26-mer peptide = biological target: T1, 26-mer peptide
33-mer peptide = biological target: T2, 33-mer peptide

Protein | Residual 26-mer peptide (mg/mL) after 0.5 ppm protease, 10 min 40 C, HPLC (26-mer peptide) [mg/mL] | Residual 26-mer peptide (mg/mL) after 1 ppm protease, 10 min 40 C, HPLC (26-mer peptide) [mg/mL] | Residual 26-mer peptide (mg/mL) after 2 ppm protease, 10 min 40 C, HPLC (26-mer peptide) [mg/mL] | Residual 33-mer peptide (mg/mL) after 0.5 ppm protease, 10 min 40 C, HPLC (33-mer peptide) [mg/mL] | Residual 33-mer peptide (mg/mL) after 1 ppm protease, 10 min 40 C, HPLC (33-mer peptide) [mg/mL] | Residual 33-mer peptide (mg/mL) after 2 ppm protease, 10 min 40 C, HPLC (33-mer peptide) [mg/mL]
CpoPro1 (protein) FGPRWARYQNDLHLAAMLGMDADSVLTNRSSLASAIDSLAETSAVVAEYANIPIDHRNPGRMYRNRYWVNDQYYQPGGPVVIFDTGETNGQAFADYYLVDPTSYIVQLLREFHGVGLVWEHRYYGESLPYPVNGQTSAAQFQYLTLEQALQDLPYFARTFRRPRLPNADLTPRSTPWIMVGGSYPGMRAAFSRLKYPDTIFAAFSSSAPAQARIDMSVYYEQVYRGLVAYGYGNCTRDVNAAYRYIDAQLANPSTAAQIKRQFLGPGAEQNSNGDFTAVLLYNWATWQSFGANGPAGQFCNWLETDQYGRVAPAEGWAPSRGARSVVDRWAAWPGLSRAINSIFETNCNCPEETCSCDLSAPPADPLAISWSWQFCSQFGYFQYQNPRPHEIASRYQTEAYIQDNCYRQFPDGVSSGHLPRRPRADATNNYTGGWNMRPSNVFHGAGQYDPWTPLTVLSQEPWGPRRRVTTQIPACNQEQEAVFGVLLPNAEHVYDLQTSYQPGEVSRQLFRRALHQWLPCFRRRNSTADHD | 0.07 | 0.01 | 0 | 0.18 | 0.02 | 0
MorPro1 (protein) VRVGNLLEPPMPPPFAIEDIEDIDPKQLTKRKISSGFFDQYIDHSNPSLGTFRQKFWWSDEFYKGPGSPVILFNPGESRADIYTGYLTNLTVPGMYAQAVGAAVVMLEHRYWGESSPFANLSTKNMQYLTLNNSISDTTRFARQVKLPFDTSGATNAPNAPWVFVGGSYPGALAGWVESVAPGTFWAYHASSAVVQDIGDYWRYFSPINEGMPKNCSADIGRVVEHIDKVLGTGSDSDKSALQTAFGLGSLEHDDFVETLANGPYLWQGIDFSTGYSDFFKFCDYVENVPPKAATRVPPGVDGVGLEKALTGYQDWIKKEYLPTACDSLGYPKGDLGCLSSHNFSAPFYRDQTVLNPGNRQWFWFLCNEPFKFWQNGAPKGEPSIVSRIIGSKYFESQCALWFPDEPREGGGVYTYGIAEGKDVASVNKFTGGWDHTDTKRLLWVNGQFDPWLHATVSSPSRPGGPLQSTDKAPVLVIPGGVHCTDLIIRNGDANEGARKVQSQAREIIKKWVSEFPKSGKSP | 0.24 | 0.07 | – | 0.44 | 0.26 | 0.12
